## scFv variants of Ab-14 (light chain) against a SARS-CoV-2 spike peptide

From the AlphaSeq antibody data of Engelhart et al. 2022 (doi:10.1038/s41597-022-01779-4), copy in the FLAb collection.

Target: peptide PDVDLGDISGINAS, taken from heptad repeat 2 (HR2) of SARS-CoV-2 spike.

Parent scFv Ab-14: VH joined to VL by three GGGGS repeats. Changes lie in the light chain CDRs alone.
VH: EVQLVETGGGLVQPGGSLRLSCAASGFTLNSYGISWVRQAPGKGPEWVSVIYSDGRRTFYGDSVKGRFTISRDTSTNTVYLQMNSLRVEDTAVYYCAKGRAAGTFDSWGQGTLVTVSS
VL: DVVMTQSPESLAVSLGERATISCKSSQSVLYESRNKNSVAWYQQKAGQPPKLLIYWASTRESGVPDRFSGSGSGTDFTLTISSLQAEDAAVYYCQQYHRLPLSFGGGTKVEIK

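The library (AAYL50) carries one to three amino acid substitutions per variant, with no insertions or deletions. The scFvs were displayed on barcoded MATa yeast, the peptide on MATalpha yeast. After mating in shaken culture at 30 °C for 16 h, diploids were selected and their barcode pairs sequenced. Scores were corrected for input abundance and mapped to Kd with protein pairs of known affinity run in the same pool. Mating was done three times.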

Each variant is given by its three light chain CDRs, as the data file delimits them; those of the parent are KSSQSVLYESRNKNSVA, WASTRES, QQYHRLPLS.
The Kd shown is the geometric mean over detected replicates; a lower Kd is a better binder.
"nd" means that the variant was in the library but no mating with the target was seen in any replicate; the authors take this as a sign of poor binding, and no number exists.
For reference, the parent read 4.4 nM as the reference entry and 48 nM as a member of this library.
Three control strains display no target. For library AAYL50, 18% of the pairings with them gave a signal, with a median of 15 µM and one signal in twenty below 970 nM, so weak values seen in few replicates may be background. The control count says in how many pairings with the empty strains this scFv gave a signal.

| CDR-L1 | CDR-L2 | CDR-L3 | Kd (apparent) | replicates with signal | signal with controls |
|---|---|---|---|---|---|
| KSSQSVLYESRMKNSVA | WASVRES | QQYHRLPLS | 3.0 nM | 3/3 | 1/9 |
| KSSQSVLYESRNKESVA | WASWRES | QQYHRLPLT | nd | 0/3 | 0/9 |
| KSSQSVLYESRNKNYVV | WASTRES | QQYHRLELS | nd | 0/3 | 2/9 |
| KSSQSVLYESRNKNSVA | WASTSES | QQYHRRPLS | 6.5 µM | 2/3 | 1/9 |
| KDSQSVGYESRNKNNVA | WASTRES | QQYHRLPLS | 9.4 nM | 3/3 | 1/9 |
| KSHQSVLYESRNKNSVA | WASTRES | QQYHFLPMS | nd | 0/3 | 1/9 |
| KSSQSMLYELRNKNSVA | WASTRES | LQYHRLPLS | 32 nM | 3/3 | 0/9 |
| KSSQSVLYESRNKNSVA | WLSTRES | QQYMDLPLS | nd | 0/3 | 0/9 |
| KSSQSVLYESRNKNSVA | WASTNES | QQKHRLTLS | 31 µM | 3/3 | 3/9 |
| KSSQSVLYESRNKNSFA | WAHTRES | QQYPRLPLS | nd | 0/3 | 0/9 |
| KSSQSVLYEWRNKNSVE | WASTREL | QQYHRLPLS | 23 µM | 2/3 | 0/9 |
| KSSQSVLYELRNKNSVQ | PASTRES | QQYHRLPLS | 230 µM | 1/3 | 0/9 |
| KSSQSVLYRSRNKNSVK | WASTRES | QCYHRLPLS | 13 µM | 2/3 | 2/9 |
| KSSQSVLYESRNKCSVA | WASTRES | QQWHRLPLS | nd | 0/3 | 2/9 |
| KSSHSVLYESRNENSVA | WASTREV | QQYHRLPLS | 1.8 nM | 3/3 | 1/9 |
| KMSQSVLYESRNKNNVA | WASGRES | QQYHRLPLS | 290 nM | 3/3 | 2/9 |
| KSSQSMLYESGNKNSVA | WASTRES | QQYLRLPLS | 1.6 nM | 3/3 | 5/9 |
| LSSQSVIYESRNKNSVA | WASSRES | QQYHRLPLS | 66 µM | 1/3 | 1/9 |
| KSSQSPLYESRNKNSVA | WASTRLS | QQYHRLKLS | 29 nM | 3/3 | 2/9 |
| KSSQSYLYESRNKNSVA | WASTRCS | QQYHALPLS | 6.7 nM | 3/3 | 3/9 |
| KSSQSVLYESHNKNSVA | WASTRES | FQYHRDPLS | 19 nM | 3/3 | 1/9 |
| KSGQSVLYESRNKNSVA | WASTRES | YTYHRLPLS | nd | 0/3 | 0/9 |
| KSSQSVLYESRNKNSVA | LASTRES | QQYHRLYES | nd | 0/3 | 1/9 |
| KSSQSVYYESRNKNSVA | WASTKAS | QQYHRLPLS | 8.1 nM | 3/3 | 0/9 |
| KSSQSVLYESRNTNSVA | WASTRES | QEYHRLPLV | 170 nM | 3/3 | 2/9 |
| KSSQSVLYESENKNSVA | WASDRES | QFYHRLPLS | 410 nM | 3/3 | 3/9 |
| KSSQSVQYESRNKWSVA | WKSTRES | QQYHRLPLS | nd | 0/3 | 0/9 |
| KSSQSVLYCERTKNSVA | WASTRES | QQYHRLPLS | nd | 0/3 | 2/9 |
| KSSQSVLYESRNKNSVA | GASTRGS | QQYHRLPQS | 3.8 µM | 1/3 | 1/9 |
| KSSQSVLYESRNKNSVA | WASYRES | QQMHRLPLV | 31 nM | 3/3 | 0/9 |
| KSSQSVTYESRNKNSVA | WASQRWS | QQYHRLPLS | 74 nM | 3/3 | 1/9 |
| FHSQSVLYESTNKNSVA | WASTRES | QQYHRLPLS | 95 nM | 2/3 | 0/9 |
| KSSQSVLWESRNKNSVA | WAPTRES | QQYHRLFLS | nd | 0/3 | 0/9 |

Continued, with the values leading:

| Kd (apparent) | replicates with signal | signal with controls | CDR-L1 | CDR-L2 | CDR-L3 |
|---|---|---|---|---|---|
| nd | 0/3 | 1/9 | KSSQSVLYESRNKCSVL | WASTRCS | QQYHRLPLS |
| 1.1 µM | 1/3 | 2/9 | KSSQSVAFESRNKNSVA | WASTNES | QQYHRLPLS |
| 30 µM | 3/3 | 2/9 | KSRQSVLYESRNKNSVA | WASTRIS | DQYHRLPLS |
| 7.0 nM | 3/3 | 0/9 | KSSQSVLYCSGNKNSVA | QASTRES | QQYHRLPLS |
| 6.7 µM | 2/3 | 1/9 | KSSQSVLYESRNKASVA | WASTTFS | QQYHRLPLS |
| 1.1 µM | 1/3 | 2/9 | KSSQPQLYESRNKNSVA | WASTRES | QQYHRLPLS |
| 13 nM | 3/3 | 3/9 | KSSQSVLAESRNKNSVA | WASTREW | QQYHLLPLS |
| 360 nM | 3/3 | 0/9 | KSVQSVLYESRNKNAVA | WASTRES | QQNHRLPLS |
| 6.9 nM | 3/3 | 4/9 | KSSQSILYESDNKNSVA | FASTRES | QQYHRLPLS |
| 58 nM | 3/3 | 0/9 | KSSQSVTYESRNKYSVA | WMSTRES | QQYHRLPLS |
| 28 µM | 2/3 | 4/9 | KSCQSVLYESRNKNSVA | WASTWES | CQYHRLPLS |
| nd | 0/3 | 0/9 | KSSCSVLYESMNKNSVA | WASTRES | QQYHRLHLS |
| 19 nM | 3/3 | 3/9 | KSSQSVLYESRNANSVA | WAQTRES | QQYHRLPLM |
| 20 nM | 3/3 | 0/9 | KSTKSVLYESRNKNSVA | WASTRES | QQYHRLPLS |
| 1.2 µM | 2/3 | 0/9 | KSSQSVLYESRNKNSVA | WASTRES | WQYHRRPLI |
| 920 µM | 1/3 | 2/9 | FSSQSVLYESRNKNSNA | WRSTRES | QQYHRLPLS |
| 5.8 nM | 3/3 | 2/9 | KSSQSVLYGSRNKNSVA | WASTRES | QQYHRLPIP |
| nd | 0/3 | 0/9 | KSSQSVLYESRNRNSVA | WASTRDS | QQYHRLPRS |
| 9.4 µM | 2/3 | 1/9 | KNSQSVLYESRNKNSVA | WAHTMES | QQYHRLPLS |
| 8.7 µM | 1/3 | 1/9 | KSSQSVLYESRNKNSVA | WASYRES | QQWHHLPLS |
| 13 µM | 3/3 | 4/9 | KESQSVLYESRNKNSVR | WASTGES | QQYHRLPLS |
| nd | 0/3 | 0/9 | KSAQSVLYESRNKNSVA | WAFTRES | QHYHRLPLS |
| 1.7 mM | 1/3 | 2/9 | KSSQSVLYESRNKNSVL | WASTYES | QQYHRLPHS |
| nd | 0/3 | 1/9 | KSSQSVLYECRNKNSVA | WASTRES | QQVHRAPLS |
| nd | 0/3 | 0/9 | KSSQSKLYEHRNKNSVA | WCSTRES | QQYHRLPLS |
| 4.7 µM | 3/3 | 3/9 | KSSQSSRYESRNKWSVA | WASTRES | QQYHRLPLS |
| 33 µM | 3/3 | 6/9 | KSSQSVLYESRNKNSVA | WASTVEM | QQYHRLPRS |
| nd | 0/3 | 3/9 | KSSQNVLYESRNKNSVA | WWSTRES | QQYHRLPLP |
| nd | 0/3 | 0/9 | KSSQAVLYESRNKHSNA | WASTRES | QQYHRLPLS |
| 2.1 µM | 3/3 | 0/9 | KSSQSVLYESRAKNSVA | WASTRES | QQYQRLLLS |
| 6.5 nM | 3/3 | 4/9 | HWSQSVLYESYNKNSVA | WASTRES | QQYHRLPLS |
| 24 nM | 3/3 | 0/9 | KSSQSVLYESRKKNSVA | WASTRES | QQLHPLPLS |
| 610 nM | 3/3 | 2/9 | KSSQSPLYESRNKNSPA | WASMRES | QQYHRLPLS |
| nd | 0/3 | 1/9 | KSSQSVPYESRNKNSVA | WAVTRES | QQSHRLPLS |

The last 9 entries again:

CDR-L1,CDR-L2,CDR-L3,Kd (apparent),replicates with signal,signal with controls
KSSQSSRYESRNKWSVA,WASTRES,QQYHRLPLS,4.7 µM,3/3,3/9
KSSQSVLYESRNKNSVA,WASTVEM,QQYHRLPRS,33 µM,3/3,6/9
KSSQNVLYESRNKNSVA,WWSTRES,QQYHRLPLP,nd,0/3,3/9
KSSQAVLYESRNKHSNA,WASTRES,QQYHRLPLS,nd,0/3,0/9
KSSQSVLYESRAKNSVA,WASTRES,QQYQRLLLS,2.1 µM,3/3,0/9
HWSQSVLYESYNKNSVA,WASTRES,QQYHRLPLS,6.5 nM,3/3,4/9
KSSQSVLYESRKKNSVA,WASTRES,QQLHPLPLS,24 nM,3/3,0/9
KSSQSPLYESRNKNSPA,WASMRES,QQYHRLPLS,610 nM,3/3,2/9
KSSQSVPYESRNKNSVA,WAVTRES,QQSHRLPLS,nd,0/3,1/9